The results in this text go back to patent US11484525B2 (priority 2015, dated 2022).

By UniProt entry, the sequences of proteins in these tests, tags left out.
UniProt P35372, whole entry: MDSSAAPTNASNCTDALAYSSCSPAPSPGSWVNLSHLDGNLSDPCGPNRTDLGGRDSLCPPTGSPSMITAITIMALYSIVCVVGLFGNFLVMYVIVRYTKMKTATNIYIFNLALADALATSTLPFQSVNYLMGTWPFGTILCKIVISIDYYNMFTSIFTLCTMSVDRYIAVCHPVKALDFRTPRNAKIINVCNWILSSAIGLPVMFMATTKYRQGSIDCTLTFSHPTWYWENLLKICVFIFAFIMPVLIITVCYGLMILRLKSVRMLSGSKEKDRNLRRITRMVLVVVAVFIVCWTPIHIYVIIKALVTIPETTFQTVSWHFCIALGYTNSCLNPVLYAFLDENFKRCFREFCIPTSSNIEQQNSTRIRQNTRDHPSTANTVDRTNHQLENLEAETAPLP

Each structure is given as a SMILES string.

The target in this experiment is MOR (Homo sapiens (Human), UniProt P35372). The experiment can be described thus: biochemical. Format: binding.

As to `CN(C)[C@H](CNC(=O)NCCc1cn(CCOCCOCCOCCOCCOCCN=[N+]=[N-])nn1)Cc1ccc(O)cc1` [DD 168], the inhibitory constant (Ki) is 13 µM.

A word on the Ki: it is a dissociation constant, usually derived from enzyme kinetics or from competition with a known ligand. Read a low Ki as a stronger hold on the target.
